In assay [1] the target is EGFR exon 20 ASV Ins V769_D770 (Homo sapiens, UniProt P00533, INS769ASV). Put plainly: Ba/F3 cell viability (CellTiter-Glo), EGFR exon 20 ASV insertion. Particulars: read-out: BaF3 ASV IC50, Ba/F3 cells expressing EGFR exon 20 ASV Ins V769_D770, 72 hours.
Assay [2] concerns the target EGFR exon 20 SVD Ins D770_N771 (Homo sapiens, UniProt P00533, INS770SVD). The assay is described as follows: Ba/F3 cell viability (CellTiter-Glo), EGFR exon 20 SVD insertion. Particulars: read-out: BaF3 SVD IC50, Ba/F3 cells expressing EGFR exon 20 SVD Ins D770_N771, 72 hours. On the technique in general: ATP-based viability assays read luminescence as a measure of living cells.

Protein sequences, listed by entry. Tags and fused reporters are not part of them. Chains listed by the source or under a name are the forms on record and can include a tag or linker. Residues count along the entry.
UniProt P00533, with tags, fused parts or gaps INS769ASV: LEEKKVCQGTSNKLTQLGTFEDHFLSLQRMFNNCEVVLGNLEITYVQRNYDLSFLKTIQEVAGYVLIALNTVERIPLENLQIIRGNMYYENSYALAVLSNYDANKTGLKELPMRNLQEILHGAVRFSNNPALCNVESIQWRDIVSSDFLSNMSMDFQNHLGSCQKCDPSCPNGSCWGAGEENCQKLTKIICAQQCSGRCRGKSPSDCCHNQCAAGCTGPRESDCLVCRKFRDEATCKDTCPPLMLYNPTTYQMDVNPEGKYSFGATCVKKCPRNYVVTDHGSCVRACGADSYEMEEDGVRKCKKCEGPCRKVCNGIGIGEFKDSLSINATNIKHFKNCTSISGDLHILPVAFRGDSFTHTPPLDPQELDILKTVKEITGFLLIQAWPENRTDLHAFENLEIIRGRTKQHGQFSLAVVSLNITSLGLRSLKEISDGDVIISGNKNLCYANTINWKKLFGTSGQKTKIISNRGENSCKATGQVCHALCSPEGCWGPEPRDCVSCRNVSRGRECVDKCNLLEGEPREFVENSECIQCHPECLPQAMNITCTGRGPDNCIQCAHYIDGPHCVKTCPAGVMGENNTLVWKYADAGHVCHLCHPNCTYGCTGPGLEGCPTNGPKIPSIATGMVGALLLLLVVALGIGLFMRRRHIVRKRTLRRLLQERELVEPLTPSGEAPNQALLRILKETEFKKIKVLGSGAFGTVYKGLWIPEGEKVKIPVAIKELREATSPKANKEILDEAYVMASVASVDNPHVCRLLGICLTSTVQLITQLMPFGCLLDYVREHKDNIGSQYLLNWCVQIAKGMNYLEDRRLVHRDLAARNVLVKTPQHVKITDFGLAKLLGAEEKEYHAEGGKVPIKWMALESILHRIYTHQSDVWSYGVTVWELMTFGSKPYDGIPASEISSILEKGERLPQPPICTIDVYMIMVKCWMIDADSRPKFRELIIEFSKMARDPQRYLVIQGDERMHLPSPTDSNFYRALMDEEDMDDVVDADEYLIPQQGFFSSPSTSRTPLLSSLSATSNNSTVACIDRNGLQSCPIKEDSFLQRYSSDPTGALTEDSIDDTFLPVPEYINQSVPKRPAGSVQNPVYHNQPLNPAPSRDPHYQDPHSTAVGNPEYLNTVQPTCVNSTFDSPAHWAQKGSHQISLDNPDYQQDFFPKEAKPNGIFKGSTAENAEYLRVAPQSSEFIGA
UniProt P00533, 25-1210 limits assumed: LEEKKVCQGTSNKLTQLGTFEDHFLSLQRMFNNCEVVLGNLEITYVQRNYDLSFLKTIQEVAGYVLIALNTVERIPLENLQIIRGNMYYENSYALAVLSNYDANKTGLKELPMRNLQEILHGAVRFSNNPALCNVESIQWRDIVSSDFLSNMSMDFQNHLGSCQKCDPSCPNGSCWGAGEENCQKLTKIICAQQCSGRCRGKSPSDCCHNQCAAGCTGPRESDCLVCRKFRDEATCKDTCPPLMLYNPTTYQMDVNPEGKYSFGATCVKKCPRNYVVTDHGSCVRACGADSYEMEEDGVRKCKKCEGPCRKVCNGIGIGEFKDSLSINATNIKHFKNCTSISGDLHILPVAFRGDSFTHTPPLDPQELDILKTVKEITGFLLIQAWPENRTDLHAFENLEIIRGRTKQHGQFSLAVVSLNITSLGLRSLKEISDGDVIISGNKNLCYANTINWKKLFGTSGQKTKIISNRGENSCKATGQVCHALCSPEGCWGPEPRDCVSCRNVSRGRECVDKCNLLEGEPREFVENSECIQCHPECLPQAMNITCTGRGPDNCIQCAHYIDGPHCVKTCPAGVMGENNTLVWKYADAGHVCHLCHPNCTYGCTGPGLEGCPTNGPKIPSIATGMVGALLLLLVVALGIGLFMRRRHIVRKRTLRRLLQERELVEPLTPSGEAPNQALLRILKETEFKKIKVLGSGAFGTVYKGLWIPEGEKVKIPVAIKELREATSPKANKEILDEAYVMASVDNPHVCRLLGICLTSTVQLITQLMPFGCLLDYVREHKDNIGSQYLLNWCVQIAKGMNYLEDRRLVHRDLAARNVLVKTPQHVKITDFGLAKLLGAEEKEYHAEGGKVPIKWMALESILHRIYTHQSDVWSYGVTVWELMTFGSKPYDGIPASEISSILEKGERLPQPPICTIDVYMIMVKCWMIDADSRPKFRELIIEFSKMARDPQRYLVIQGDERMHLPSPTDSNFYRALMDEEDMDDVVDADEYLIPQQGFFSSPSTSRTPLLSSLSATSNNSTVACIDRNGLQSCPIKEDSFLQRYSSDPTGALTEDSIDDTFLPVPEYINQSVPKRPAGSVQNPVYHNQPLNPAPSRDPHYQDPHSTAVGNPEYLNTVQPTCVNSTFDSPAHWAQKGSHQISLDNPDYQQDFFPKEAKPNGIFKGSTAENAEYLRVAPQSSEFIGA
UniProt P00533, with tags, fused parts or gaps INS770NPG limits assumed: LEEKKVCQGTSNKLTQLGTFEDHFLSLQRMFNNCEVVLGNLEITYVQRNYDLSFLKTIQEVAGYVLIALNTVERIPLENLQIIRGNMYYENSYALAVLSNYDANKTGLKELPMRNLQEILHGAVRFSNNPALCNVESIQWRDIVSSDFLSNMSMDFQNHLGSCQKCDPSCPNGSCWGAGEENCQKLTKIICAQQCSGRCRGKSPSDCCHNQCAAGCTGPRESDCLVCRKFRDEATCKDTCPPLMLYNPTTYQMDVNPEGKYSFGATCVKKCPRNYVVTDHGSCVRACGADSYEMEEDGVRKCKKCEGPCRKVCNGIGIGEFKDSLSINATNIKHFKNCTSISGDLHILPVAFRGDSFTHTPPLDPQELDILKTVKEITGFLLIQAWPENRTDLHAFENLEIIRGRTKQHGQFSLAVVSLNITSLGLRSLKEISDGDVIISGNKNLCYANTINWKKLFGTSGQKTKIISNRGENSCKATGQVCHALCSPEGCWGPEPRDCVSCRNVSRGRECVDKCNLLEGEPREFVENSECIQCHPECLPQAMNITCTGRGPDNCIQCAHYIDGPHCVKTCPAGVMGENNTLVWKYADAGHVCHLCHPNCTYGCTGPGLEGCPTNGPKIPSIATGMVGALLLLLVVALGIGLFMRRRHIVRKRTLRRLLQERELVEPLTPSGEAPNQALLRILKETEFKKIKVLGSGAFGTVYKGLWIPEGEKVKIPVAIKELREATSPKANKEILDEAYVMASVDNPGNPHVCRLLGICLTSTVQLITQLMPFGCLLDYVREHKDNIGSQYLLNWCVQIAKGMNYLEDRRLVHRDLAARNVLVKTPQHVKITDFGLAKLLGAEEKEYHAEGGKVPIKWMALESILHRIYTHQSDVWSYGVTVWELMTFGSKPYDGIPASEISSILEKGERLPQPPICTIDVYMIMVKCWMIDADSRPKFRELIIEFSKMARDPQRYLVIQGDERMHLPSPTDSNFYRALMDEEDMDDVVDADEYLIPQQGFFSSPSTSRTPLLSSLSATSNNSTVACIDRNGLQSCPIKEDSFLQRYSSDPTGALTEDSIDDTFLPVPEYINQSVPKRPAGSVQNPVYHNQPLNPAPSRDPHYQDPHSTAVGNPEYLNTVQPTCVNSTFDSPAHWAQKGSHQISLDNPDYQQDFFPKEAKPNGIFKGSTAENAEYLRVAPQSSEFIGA
UniProt P00533, with tags, fused parts or gaps INS770SVD limits assumed: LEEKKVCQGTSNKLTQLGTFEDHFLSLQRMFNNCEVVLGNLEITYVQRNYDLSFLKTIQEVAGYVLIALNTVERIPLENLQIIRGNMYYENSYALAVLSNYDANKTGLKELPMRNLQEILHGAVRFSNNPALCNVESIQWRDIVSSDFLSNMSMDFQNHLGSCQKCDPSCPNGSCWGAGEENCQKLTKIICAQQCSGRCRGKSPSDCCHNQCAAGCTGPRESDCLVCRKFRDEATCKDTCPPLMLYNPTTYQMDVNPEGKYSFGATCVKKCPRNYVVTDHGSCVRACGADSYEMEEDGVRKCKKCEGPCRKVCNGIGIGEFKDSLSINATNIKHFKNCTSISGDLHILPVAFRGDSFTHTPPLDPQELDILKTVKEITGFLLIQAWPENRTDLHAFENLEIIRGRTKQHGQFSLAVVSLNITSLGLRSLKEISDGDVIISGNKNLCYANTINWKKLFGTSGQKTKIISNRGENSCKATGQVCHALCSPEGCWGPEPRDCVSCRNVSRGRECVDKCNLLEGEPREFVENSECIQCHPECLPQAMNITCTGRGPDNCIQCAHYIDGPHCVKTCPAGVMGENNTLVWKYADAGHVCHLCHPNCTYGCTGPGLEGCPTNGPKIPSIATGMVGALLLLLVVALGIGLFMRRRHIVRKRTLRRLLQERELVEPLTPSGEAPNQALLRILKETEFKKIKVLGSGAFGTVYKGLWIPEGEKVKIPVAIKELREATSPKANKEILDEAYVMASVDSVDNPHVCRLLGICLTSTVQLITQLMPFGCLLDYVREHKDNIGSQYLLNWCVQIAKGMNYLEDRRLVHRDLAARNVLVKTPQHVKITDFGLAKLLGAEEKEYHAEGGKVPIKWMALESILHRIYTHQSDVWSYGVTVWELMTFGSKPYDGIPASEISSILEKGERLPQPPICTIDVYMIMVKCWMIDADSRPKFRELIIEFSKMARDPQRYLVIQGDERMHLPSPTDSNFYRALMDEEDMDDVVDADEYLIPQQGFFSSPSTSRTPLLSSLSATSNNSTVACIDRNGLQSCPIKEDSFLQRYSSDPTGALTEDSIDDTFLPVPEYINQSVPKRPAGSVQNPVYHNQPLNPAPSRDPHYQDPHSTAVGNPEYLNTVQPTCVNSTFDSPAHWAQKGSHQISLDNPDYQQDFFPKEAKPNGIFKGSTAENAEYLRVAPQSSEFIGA

Assay [3] concerns the target EGFR exon 20 NPG Ins D770_N771 (Homo sapiens, UniProt P00533, INS770NPG). The assay is described as follows: Ba/F3 cell viability (CellTiter-Glo), EGFR exon 20 NPG insertion. Particulars: read-out: BaF3 NPG IC50, Ba/F3 cells expressing EGFR exon 20 NPG Ins D770_N771, 72 hours.
The next assay deals with EGFR WT (Homo sapiens, UniProt P00533). Put plainly: Ba/F3 cell viability (CellTiter-Glo), EGFR WT. The settings on record: read-out: BaF3 WT IC50, Ba/F3 cells expressing EGFR WT, supplemental EGF, 72 hours.
Assay [4] has as its target EGFR phosphorylation (pEGFR) in CUTO14 cells (Homo sapiens, UniProt P00533, INS769ASV). Put plainly: EGFR phosphorylation (pEGFR) AlphaLISA in CUTO14 cells. Particulars: read-out: CUTO14 IC50 (pEGFR), 2 hours.

Each structure is given as a SMILES string. Some results are limits rather than exact numbers.

Experimental findings from patent publication US20260285856A1, “A 1,5-DIHYDRO-4H-PYRROLO[3,2-C] PYRIDIN-4-ONE FOR USE IN THE TREATMENT OF CANCER” (ANTARES THERAPEUTICS, INC., priority 2023, published 2026) are described below.

`COc1c(Cl)cccc1Nc1c(-c2ccncc2C#C[C@]2(C)CCCN2C(=O)/C=C/CN(C)C)[nH]c2cc[nH]c(=O)c12`: the IC50 was 100 to 1000 nM in assay [1]; 100 to 1000 nM in assay [2]; less than 100 nM in assay [3]; greater than 1000 nM on EGFR WT; less than 100 nM in assay [4].
